According to PubChem BioAssay AID720708 (National Center for Advancing Translational Sciences (NCATS), 2013):
The entries are a selection whose mix differs from that of the whole data set. Calls of active or inactive are those of the source. The call rests on the fitted dose curve; in most records, active means well fitted inhibition curve with a large enough effect; inconclusive means small, poorly fitted or top-dose-only effect; inactive means no such curve, though single readings can be large or run the other way.
Further: nearly all actives have a fitted effect of over 45% in size.
On the % scale 0 is the no-effect control and ±100 the full control effect.

Sequences of proteins named here, by UniProt entry; tags and fusion partners are left off. A change or cut given only in a name is not applied to a line headed by its entry.
UniProt Q8WZA2: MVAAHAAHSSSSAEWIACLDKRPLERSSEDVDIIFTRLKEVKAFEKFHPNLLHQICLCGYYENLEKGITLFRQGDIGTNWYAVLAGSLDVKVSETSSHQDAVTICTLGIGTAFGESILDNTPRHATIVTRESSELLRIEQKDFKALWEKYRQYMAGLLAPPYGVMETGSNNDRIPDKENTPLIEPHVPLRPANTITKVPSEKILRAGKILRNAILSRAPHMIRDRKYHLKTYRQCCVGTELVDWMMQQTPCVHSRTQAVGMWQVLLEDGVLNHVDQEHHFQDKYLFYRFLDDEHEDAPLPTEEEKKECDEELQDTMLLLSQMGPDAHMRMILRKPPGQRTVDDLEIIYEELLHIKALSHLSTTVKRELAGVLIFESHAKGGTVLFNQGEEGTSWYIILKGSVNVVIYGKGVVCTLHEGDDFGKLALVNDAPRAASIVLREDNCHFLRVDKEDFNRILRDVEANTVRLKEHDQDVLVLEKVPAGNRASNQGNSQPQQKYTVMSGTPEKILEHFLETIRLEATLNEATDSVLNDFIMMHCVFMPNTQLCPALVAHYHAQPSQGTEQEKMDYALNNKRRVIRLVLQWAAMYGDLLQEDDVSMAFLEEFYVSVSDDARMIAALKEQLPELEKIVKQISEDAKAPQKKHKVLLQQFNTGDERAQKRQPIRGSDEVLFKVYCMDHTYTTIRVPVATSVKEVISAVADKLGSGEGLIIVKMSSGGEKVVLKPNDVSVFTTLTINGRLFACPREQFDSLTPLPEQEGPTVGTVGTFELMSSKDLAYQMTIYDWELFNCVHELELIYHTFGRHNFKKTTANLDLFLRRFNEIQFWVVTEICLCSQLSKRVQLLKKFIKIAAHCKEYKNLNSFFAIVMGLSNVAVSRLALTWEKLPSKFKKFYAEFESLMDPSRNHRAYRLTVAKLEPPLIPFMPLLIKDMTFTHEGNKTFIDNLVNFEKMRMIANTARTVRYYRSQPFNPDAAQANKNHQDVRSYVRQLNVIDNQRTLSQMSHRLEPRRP

Each molecule was assayed against Rap guanine nucleotide exchange factor 4 (Homo sapiens) (UniProt Q8WZA2) (assay: qHTS for Antagonist of cAMP-regulated guanine nucleotide exchange factor 2 (EPAC2): primary screen). Conditions: EPAC2 GEF exchange of Rap1B-BODIPY-GDP, fluorescence; at 114 µM (top of the series) unless noted.
Source text: In multi-cellular eukaryotic organisms, the effects of cAMP are transduced by two ubiquitously-expressed intracellular cAMP receptors, the classic protein kinase A/cAMP-dependent protein kinase (PKA/cAPK) and the more recently discovered exchange protein directly activated by cAMP/cAMP-regulated guanine nucleotide exchange factor (EPAC/cAMP-GEF). Both PKA and EPAC are ubiquitously expressed in all tissues, and an increase in intracellular cAMP levels will lead to the activation of both PKA and EPAC. Therefore, careful dissections of the individual role and relative contribution of EPAC and PKA within the overall cAMP signaling in various model systems are critical for further elucidating the mechanism of cAMP signaling. To date no EPAC-specific antagonists and agonist, as well as isoform-specific agonists have been reported, and developing EPAC-specific pharmacological probes to determine the physiological functions that EPAC play in the overall cAMP-mediated signaling remains a major challenge within the research field. Furthermore, identified regulators of EPAC may lead to new mechanism-based therapeutic strategies specifically targeting the EPAC / cAMP-signaling components as EPAC has been implicated to play important roles in major human pathological conditions such as diabetes, heart disease, and cancer.
This qHTS will be used to screen the Molecular Libraries Small Molecule Repository (MLSMR) as a concentration-titration series using the NCGC unique quantitative screening (qHTS) platform to find inhibitors for EPAC2. In addition, this assay will also be used as a counterscreen for the EPAC1 qHTS. This fluorescent based assay is developed and validated for EPAC2 that measures exchange using EPAC effector Rap1 complex with BODIPY-GDP, a GDP analog with a tethered fluorophores. Inhibitors are identified by monitoring the change in fluorescence signal as the exchanged free BODIPY-GDP has a reduced fluorescence compared to Rap1-bound BODIPY-GDP. Decrease in signal (inhibition) is the desired outcome for the EPAC2 antagonist while no activity in this assay is desired for the EPAC1 antagonist counterscreen.
NIH Chemical Genomics Center [NCGC]
NIH Molecular Libraries Probe Centers Network [MLPCN]
Assay Submitter (PI): Xiaodong Cheng, The University of Texas, Medical Branch
Briefly, three uL of reagents (100 nM EPAC2, 250 nM RAP1B-BODIPY-GDP, 50 uM GDP) were dispensed into a 1536-well Greiner black solid-bottom medium binding assay plate. Controls and test compounds (23 nL) were transferred to the plate via a Kalypsys pin tool equipped with a 1536-pin array. The plates were centrifuged at 1,000 rpm for 15 seconds followed by 5 minute incubation at room temperature. The assay plates were read at 5 minute intervals for 30 minutes in the ViewLux plate reader using 480nm excitation and 540nm emission filters. The results were normalized to the agonist positive control ATA and DMSO.
O=C(OC1CN2CCC1CC2)c1ccc(Cl)cc1 (configuration not stated) was tested, and the activity, negative = inhibition was inactive: -5.94%. With O=[As](O)(c1cccc(O)c1)c1cccc(O)c1 the activity, negative = inhibition was inactive: -1.55%. Cc1cccc(OCC(=O)OC2CN3CCC2CC3)c1 (configuration not stated) was tested, and the activity, negative = inhibition was inactive: -21.1%. In the case of COc1ccccc1CNC(=O)COC(=O)C(O)(c1ccccc1)c1ccccc1, the activity, negative = inhibition is reported as inactive: 1.87%. CC1(CBr)Cn2c(nc3ccccc3c2=O)S1 (configuration not stated) was tested, and the activity, negative = inhibition was inactive: -4.47%. With CN(C(=O)Cc1ccc(Cl)c(Cl)c1)[C@@H]1CCCC[C@H]1N1CCCC1 the activity, negative = inhibition was inactive: -16.7%. For CC(C)/C=N\N=C(\N)N[N+](=O)[O-], the activity, negative = inhibition was inactive: 30.2%. For CN(CCCl)Cc1cc(Cl)c(NC2=NCCN2)c(Cl)c1, the activity, negative = inhibition was inactive: -11%. For CCOP(=O)(Nc1ccc(C)cn1)OCC, the activity, negative = inhibition was inactive: 0.762%. In the case of CCOP(=O)(NC(=NC(C)c1ccccc1)NC(C)c1ccccc1)OCC (configuration not stated), the activity, negative = inhibition is reported as inactive: 6.41%. With CCC1=CC2Cc3nc4ccc(Cl)cc4c(N)c3C(C1)C2 (configuration not stated) the activity, negative = inhibition was inactive: -10.3%. O=P1(Nc2ccccn2)COc2ccccc2OC1 was tested, and the activity, negative = inhibition was inactive: 4.4%. CC(C)(C)C(=O)NC(Sc1ncccn1)C(Cl)(Cl)Cl (configuration not stated) was tested, and the activity, negative = inhibition was inactive: -1.12%. In the case of Clc1n[nH]nc1-c1nn[nH][15n]1, the activity, negative = inhibition is reported as inactive: -0.204%. For O=P1(N(CCCl)CCCl)NCCC(C(F)(F)F)O1 (configuration not stated), the activity, negative = inhibition was inactive: 8.45%. O=P1(Nc2ncccn2)COc2ccccc2OC1 was tested, and the activity, negative = inhibition was inactive: 4.52%. Cc1ccc(S(=O)(=O)N(CCCN)CCCc2c(C)nc(N)[nH]c2=O)cc1 was tested, and the activity, negative = inhibition was inactive: -24.2%. In the case of NS(=O)(=O)c1cccc(NC(=O)COC(=O)C(O)(c2ccccc2)c2ccccc2)c1, the activity, negative = inhibition is reported as inactive: -6.8%. With O=P1(Nc2ccc(Br)cn2)COc2ccccc2OC1 the activity, negative = inhibition was inactive: 15.5%. For Cc1ccc(OCC(=O)OC2CN3CCC2CC3)cc1 (configuration not stated), the activity, negative = inhibition was inactive: 18.4%. In the case of O=[As](O)(c1cccs1)c1cccs1, the activity, negative = inhibition is reported as inactive: 9.95%. Nc1cccc([As](=O)(O)c2ccccc2)c1 was tested, and the activity, negative = inhibition was inactive: 9.31%. Cc1ccc(C(=O)OC2CN3CCC2CC3)cc1 (configuration not stated) was tested, and the activity, negative = inhibition was inactive: -4.79%. Cc1nn(-c2ccccc2)c2c1P(=O)(N1CCOCC1)N(C)C(c1ccccc1)=N2 (configuration not stated) was tested, and the activity, negative = inhibition was inactive: -1.18%. CCCC1OP(=O)(Nc2ccccc2)OCC1CC (configuration not stated) was tested, and the activity, negative = inhibition was inactive: 1.95%. With O=C(/C=C/c1ccccc1)OC1CN2CCC1CC2 (configuration not stated) the activity, negative = inhibition was inactive: 2.39%. With CN(C)C1(CNC(=O)c2ccc(S(C)(=O)=O)cc2)CCCCC1 the activity, negative = inhibition was inactive: -1.82%. In the case of CCOC(=O)Nc1cccc([As](=O)(O)O)c1, the activity, negative = inhibition is reported as inactive: -1.93%. For O=[N+]([O-])c1ccc(Nc2ccc(Oc3ccc([N+](=O)[O-])cc3[N+](=O)[O-])cc2)c([N+](=O)[O-])c1, the activity, negative = inhibition was inactive: 3.69%. In the case of Cc1cc(SC(NC=O)C(Cl)(Cl)Cl)ncn1 (configuration not stated), the activity, negative = inhibition is reported as inactive: -11.2%. O=P(Nc1ccccn1)(c1cccc2ccccc12)c1cccc2ccccc12 was tested, and the activity, negative = inhibition was inactive: -25.5%. CC1CCNP(=O)(N(CCCl)CCCl)O1 (configuration not stated) was tested, and the activity, negative = inhibition was inactive: -0.577%. For O=C(O)C(O)c1ccc(N(CCCl)CCCl)cc1 (configuration not stated), the activity, negative = inhibition was inactive: 2.38%. With CCOC(=O)Nc1ccc([As](=O)(O)O)c(O)c1 the activity, negative = inhibition was inactive: -1.98%. In the case of Cc1cc(SC(NC(=O)c2ccccc2)C(Cl)(Cl)Cl)nc(C(C)C)n1 (configuration not stated), the activity, negative = inhibition is reported as inactive: -4.57%. CCCCOc1ccc(C(=O)NCC2(N3CCCCC3)CCCCC2)cc1OC was tested, and the activity, negative = inhibition was inactive: 15.2%. In the case of COP(=O)(OC)N1CC1c1ccccc1 (configuration not stated), the activity, negative = inhibition is reported as inactive: 8.43%. For CCOC(=O)c1ccc(NC(=O)C(C)(CCl)SC)cc1 (configuration not stated), the activity, negative = inhibition was inactive: -4.7%. In the case of CSc1ccc(Nc2c([N+](=O)[O-])cc([N+](=O)[O-])cc2[N+](=O)[O-])cc1, the activity, negative = inhibition is reported as inactive: -14.5%. With O=C(OC1CN2CCC1CC2)c1cccc([N+](=O)[O-])c1 (configuration not stated) the activity, negative = inhibition was inactive: -4.35%. With CCC(C)N(CC(C)C)C(=S)SC(NC(C)=O)C(Cl)(Cl)Cl (configuration not stated) the activity, negative = inhibition was inactive: -1.92%. In the case of COC(=O)C1(C)COP(=O)(N2CCCC2)OC1 (configuration not stated), the activity, negative = inhibition is reported as inactive: 11.7%. For COP1(=S)c2c(C)nn(CCC#N)c2N=C(c2ccc(F)cc2)N1C (configuration not stated), the activity, negative = inhibition was inactive: -5.14%. For O=C(Nc1ccncc1[N+](=O)[O-])c1ccc([N+](=O)[O-])cc1[N+](=O)[O-], the activity, negative = inhibition was inactive: 5.74%. O=C(COc1ccccc1)OC1CN2CCC1CC2 (configuration not stated) was tested, and the activity, negative = inhibition was inactive: 12%. In the case of O=C(O)C(=O)c1ccc(N(CCCl)CCCl)cc1, the activity, negative = inhibition is reported as inactive: 1.7%. In the case of COc1ccc(N/C(=N/P(=O)(N2CCOCC2)N2CCOCC2)N2CCOCC2)cc1, the activity, negative = inhibition is reported as inactive: -3.49%. O=[N+]([O-])c1cc(Oc2ccc([N+](=O)[O-])cc2C(F)(F)F)cc([N+](=O)[O-])c1 was tested, and the activity, negative = inhibition was inactive: -2.98%. For Cc1cc(=O)[nH]c(N[N+](=O)[O-])n1, the activity, negative = inhibition was inactive: -6.6%. O=C(OC1CN2CCC1CC2)C12CC3CC(CC(C3)C1)C2 (configuration not stated) was tested, and the activity, negative = inhibition was inactive: 4.14%. In the case of Cc1c2c(nc3ccccc13)SC(C(Cl)Cl)C2 (configuration not stated), the activity, negative = inhibition is reported as inactive: -17.8% [at 57.1 µM]. In the case of COc1cc(I)ccc1[As](=O)(O)O, the activity, negative = inhibition is reported as inactive: 4.05%. In the case of COc1ccc2nc(NP(=O)(c3ccccc3)c3ccccc3)sc2c1, the activity, negative = inhibition is reported as inactive: -3.67%. In the case of O=P1(N(CCCl)CCCl)Nc2ccccc2N1, the activity, negative = inhibition is reported as inactive: 11.2%. With O=P1(N(CCCl)CCCl)OCCCN1CCCl (configuration not stated) the activity, negative = inhibition was inactive: -0.39%. For COC(=O)C1(C)COP(=O)(N2CCCCCC2)OC1 (configuration not stated), the activity, negative = inhibition was inactive: 9.37%. In the case of ClCCSc1nnc(-c2cccnc2)o1, the activity, negative = inhibition is reported as inactive: 11.1%. For O=[N+]([O-])c1cc([N+](=O)[O-])c(-c2ccn[nH]2)s1, the activity, negative = inhibition was inactive: -11.2%. In the case of CCN(CC)C(=S)SC(NC=O)C(Cl)(Cl)Cl (configuration not stated), the activity, negative = inhibition is reported as inactive: 5.93%. In the case of O=C(OC1CN2CCC1CC2)c1cccc2[nH]cnc12 (configuration not stated), the activity, negative = inhibition is reported as inactive: -0.65%. CC(C)NC(=O)NP(=O)(Oc1ccccc1)Oc1ccccc1 was tested, and the activity, negative = inhibition was inactive: -6.76%. In the case of COc1cc(C(=O)NCC2(N3CCOCC3)CCCCC2)ccc1OCC(C)C, the activity, negative = inhibition is reported as inactive: 3.46%. In the case of C[As](=O)(O)c1cccc(C(=O)O)c1, the activity, negative = inhibition is reported as inactive: 7.87%. With O=[As](O)(c1ccc(O)cc1)c1ccccc1O the activity, negative = inhibition was inactive: 0.36%. Cc1ccc2nc3c(c(C)c2c1)CC(C(Cl)Cl)S3 (configuration not stated) was tested, and the activity, negative = inhibition was inactive: 5.26%. With Cc1ccc(OP(=O)(Nc2ccc([N+](=O)[O-])cn2)Oc2ccc(C)cc2)cc1 the activity, negative = inhibition was inactive: 23.5%. With [N-]=[N+]=NC1CCCCC1NC(=O)c1cc([N+](=O)[O-])cc([N+](=O)[O-])c1 (configuration not stated) the activity, negative = inhibition was inactive: -27.8%.
